ChEMBL document CHEMBL3856231 (J Med Chem, 2016)

The chains behind the UniProt entries cited, without tags or fusion partners. Residues count along the entry.
UniProt Q9UM73, 19-1620 C1156Y limits assumed: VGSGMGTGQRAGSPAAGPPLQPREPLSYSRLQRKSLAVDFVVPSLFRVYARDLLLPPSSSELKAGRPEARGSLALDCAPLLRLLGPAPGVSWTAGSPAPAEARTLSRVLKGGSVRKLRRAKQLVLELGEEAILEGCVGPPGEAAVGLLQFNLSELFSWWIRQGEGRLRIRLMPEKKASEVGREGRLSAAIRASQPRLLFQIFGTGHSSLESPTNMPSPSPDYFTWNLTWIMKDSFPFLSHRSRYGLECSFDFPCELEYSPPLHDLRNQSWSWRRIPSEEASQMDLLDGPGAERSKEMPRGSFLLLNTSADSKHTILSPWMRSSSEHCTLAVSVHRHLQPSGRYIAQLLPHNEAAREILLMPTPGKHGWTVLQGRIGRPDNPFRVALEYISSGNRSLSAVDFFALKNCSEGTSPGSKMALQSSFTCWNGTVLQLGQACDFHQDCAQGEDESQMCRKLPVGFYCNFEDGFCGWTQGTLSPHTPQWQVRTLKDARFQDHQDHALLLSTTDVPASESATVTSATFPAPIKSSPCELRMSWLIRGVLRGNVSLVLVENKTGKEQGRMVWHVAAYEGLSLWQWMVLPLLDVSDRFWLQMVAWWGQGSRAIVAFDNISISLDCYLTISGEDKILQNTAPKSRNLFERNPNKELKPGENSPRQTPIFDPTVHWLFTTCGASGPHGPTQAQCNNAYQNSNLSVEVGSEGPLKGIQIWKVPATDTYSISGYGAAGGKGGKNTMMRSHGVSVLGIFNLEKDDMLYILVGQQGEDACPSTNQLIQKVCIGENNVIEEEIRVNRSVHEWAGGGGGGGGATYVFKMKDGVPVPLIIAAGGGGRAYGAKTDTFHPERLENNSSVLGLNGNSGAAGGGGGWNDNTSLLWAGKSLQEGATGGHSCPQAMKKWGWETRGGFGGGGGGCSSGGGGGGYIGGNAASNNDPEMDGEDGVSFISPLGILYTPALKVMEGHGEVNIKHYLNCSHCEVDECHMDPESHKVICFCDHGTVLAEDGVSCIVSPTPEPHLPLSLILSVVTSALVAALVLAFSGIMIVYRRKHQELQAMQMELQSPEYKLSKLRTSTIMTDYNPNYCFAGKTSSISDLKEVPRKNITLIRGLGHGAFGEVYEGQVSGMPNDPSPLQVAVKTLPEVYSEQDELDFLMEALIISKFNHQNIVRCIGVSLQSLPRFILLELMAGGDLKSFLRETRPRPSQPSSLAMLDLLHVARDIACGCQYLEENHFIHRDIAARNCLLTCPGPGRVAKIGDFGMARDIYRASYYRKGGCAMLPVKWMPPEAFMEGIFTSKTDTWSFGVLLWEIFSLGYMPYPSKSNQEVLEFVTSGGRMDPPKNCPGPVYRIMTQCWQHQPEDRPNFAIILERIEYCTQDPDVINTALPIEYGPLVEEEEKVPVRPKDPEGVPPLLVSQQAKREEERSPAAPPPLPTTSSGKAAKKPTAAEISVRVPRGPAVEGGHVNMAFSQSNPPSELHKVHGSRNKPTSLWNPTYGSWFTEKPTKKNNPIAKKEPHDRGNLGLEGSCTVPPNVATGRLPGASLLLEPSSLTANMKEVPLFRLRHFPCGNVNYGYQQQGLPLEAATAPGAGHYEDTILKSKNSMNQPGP
UniProt Q9UM73, 19-1620 limits assumed: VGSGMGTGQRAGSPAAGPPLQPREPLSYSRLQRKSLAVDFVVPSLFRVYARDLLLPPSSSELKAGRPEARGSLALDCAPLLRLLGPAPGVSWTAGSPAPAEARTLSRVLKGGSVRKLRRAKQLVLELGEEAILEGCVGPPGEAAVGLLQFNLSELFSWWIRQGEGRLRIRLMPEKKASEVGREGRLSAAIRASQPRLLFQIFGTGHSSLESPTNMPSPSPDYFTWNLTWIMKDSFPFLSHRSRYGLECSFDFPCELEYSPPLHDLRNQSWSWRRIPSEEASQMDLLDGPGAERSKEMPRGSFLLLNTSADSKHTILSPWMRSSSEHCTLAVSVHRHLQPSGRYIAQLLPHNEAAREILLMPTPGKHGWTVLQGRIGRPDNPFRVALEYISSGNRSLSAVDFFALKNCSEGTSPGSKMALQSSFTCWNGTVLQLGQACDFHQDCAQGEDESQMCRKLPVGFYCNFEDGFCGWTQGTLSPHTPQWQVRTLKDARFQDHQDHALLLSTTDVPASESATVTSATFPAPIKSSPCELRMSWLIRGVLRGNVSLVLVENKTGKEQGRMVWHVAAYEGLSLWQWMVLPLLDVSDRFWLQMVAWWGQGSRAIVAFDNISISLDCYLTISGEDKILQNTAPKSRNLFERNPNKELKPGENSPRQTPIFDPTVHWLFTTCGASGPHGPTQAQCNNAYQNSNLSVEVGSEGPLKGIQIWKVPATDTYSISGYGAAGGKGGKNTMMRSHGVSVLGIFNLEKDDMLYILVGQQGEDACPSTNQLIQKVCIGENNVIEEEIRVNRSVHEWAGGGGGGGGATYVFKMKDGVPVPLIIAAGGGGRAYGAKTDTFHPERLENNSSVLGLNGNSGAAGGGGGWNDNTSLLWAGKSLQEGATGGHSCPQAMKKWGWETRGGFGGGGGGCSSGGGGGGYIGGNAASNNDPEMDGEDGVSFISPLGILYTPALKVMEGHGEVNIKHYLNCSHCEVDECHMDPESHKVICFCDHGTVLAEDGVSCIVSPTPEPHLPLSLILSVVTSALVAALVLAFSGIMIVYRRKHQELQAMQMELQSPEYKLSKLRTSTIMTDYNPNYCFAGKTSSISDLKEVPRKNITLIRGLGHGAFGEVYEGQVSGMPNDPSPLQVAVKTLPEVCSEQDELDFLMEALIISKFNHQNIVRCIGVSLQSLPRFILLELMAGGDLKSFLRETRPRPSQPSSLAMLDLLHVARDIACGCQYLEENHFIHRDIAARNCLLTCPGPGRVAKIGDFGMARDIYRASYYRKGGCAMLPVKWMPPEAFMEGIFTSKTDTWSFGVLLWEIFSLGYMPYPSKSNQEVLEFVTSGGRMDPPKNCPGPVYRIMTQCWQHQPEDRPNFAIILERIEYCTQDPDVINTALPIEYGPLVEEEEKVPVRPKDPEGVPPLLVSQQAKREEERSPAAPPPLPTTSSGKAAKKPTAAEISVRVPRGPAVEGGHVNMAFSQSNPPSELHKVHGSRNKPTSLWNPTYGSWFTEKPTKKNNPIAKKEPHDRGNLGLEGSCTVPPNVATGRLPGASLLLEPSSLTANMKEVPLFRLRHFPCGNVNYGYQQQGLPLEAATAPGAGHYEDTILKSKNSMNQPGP
UniProt Q9UM73, 19-1620 L1196M limits assumed: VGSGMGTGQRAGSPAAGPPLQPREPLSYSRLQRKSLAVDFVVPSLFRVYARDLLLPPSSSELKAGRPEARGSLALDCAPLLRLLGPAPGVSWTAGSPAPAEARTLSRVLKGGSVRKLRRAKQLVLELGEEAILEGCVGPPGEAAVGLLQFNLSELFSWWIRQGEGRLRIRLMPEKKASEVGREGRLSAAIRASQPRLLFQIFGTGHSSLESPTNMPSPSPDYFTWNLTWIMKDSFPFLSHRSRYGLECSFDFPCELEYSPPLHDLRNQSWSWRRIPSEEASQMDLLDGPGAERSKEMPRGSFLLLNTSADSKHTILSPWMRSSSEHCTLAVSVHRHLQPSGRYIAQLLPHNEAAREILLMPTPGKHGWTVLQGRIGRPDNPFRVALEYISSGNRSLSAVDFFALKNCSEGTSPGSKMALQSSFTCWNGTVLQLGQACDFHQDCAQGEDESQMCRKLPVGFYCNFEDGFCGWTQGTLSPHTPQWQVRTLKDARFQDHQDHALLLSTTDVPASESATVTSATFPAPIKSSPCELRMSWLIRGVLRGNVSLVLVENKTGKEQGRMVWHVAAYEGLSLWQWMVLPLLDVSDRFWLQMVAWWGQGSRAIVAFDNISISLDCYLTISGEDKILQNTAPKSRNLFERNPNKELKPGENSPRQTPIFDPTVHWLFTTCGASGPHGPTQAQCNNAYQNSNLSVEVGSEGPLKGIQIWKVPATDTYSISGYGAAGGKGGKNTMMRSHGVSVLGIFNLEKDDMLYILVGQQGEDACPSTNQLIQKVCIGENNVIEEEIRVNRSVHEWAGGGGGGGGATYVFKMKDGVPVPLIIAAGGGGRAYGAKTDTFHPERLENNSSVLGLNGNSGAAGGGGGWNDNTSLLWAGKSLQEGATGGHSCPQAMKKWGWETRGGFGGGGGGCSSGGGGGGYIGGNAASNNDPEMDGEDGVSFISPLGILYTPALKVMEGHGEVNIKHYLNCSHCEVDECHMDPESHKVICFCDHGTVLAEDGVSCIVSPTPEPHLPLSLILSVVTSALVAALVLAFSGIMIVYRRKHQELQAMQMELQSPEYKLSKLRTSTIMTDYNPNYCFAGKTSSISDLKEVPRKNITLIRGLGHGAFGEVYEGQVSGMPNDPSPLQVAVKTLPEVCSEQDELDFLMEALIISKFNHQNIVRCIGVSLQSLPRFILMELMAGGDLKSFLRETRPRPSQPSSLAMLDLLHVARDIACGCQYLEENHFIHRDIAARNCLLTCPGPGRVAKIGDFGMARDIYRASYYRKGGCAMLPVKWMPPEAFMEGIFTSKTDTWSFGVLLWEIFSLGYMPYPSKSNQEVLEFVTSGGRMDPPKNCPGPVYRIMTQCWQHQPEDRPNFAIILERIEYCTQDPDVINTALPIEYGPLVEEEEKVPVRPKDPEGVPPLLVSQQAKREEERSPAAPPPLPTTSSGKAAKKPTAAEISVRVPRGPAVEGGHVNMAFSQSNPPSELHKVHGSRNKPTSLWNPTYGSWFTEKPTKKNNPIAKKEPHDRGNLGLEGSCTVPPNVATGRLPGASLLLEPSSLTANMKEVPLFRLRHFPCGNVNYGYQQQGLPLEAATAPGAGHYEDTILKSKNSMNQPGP
UniProt Q9UM73, 19-1620 F1174L limits assumed: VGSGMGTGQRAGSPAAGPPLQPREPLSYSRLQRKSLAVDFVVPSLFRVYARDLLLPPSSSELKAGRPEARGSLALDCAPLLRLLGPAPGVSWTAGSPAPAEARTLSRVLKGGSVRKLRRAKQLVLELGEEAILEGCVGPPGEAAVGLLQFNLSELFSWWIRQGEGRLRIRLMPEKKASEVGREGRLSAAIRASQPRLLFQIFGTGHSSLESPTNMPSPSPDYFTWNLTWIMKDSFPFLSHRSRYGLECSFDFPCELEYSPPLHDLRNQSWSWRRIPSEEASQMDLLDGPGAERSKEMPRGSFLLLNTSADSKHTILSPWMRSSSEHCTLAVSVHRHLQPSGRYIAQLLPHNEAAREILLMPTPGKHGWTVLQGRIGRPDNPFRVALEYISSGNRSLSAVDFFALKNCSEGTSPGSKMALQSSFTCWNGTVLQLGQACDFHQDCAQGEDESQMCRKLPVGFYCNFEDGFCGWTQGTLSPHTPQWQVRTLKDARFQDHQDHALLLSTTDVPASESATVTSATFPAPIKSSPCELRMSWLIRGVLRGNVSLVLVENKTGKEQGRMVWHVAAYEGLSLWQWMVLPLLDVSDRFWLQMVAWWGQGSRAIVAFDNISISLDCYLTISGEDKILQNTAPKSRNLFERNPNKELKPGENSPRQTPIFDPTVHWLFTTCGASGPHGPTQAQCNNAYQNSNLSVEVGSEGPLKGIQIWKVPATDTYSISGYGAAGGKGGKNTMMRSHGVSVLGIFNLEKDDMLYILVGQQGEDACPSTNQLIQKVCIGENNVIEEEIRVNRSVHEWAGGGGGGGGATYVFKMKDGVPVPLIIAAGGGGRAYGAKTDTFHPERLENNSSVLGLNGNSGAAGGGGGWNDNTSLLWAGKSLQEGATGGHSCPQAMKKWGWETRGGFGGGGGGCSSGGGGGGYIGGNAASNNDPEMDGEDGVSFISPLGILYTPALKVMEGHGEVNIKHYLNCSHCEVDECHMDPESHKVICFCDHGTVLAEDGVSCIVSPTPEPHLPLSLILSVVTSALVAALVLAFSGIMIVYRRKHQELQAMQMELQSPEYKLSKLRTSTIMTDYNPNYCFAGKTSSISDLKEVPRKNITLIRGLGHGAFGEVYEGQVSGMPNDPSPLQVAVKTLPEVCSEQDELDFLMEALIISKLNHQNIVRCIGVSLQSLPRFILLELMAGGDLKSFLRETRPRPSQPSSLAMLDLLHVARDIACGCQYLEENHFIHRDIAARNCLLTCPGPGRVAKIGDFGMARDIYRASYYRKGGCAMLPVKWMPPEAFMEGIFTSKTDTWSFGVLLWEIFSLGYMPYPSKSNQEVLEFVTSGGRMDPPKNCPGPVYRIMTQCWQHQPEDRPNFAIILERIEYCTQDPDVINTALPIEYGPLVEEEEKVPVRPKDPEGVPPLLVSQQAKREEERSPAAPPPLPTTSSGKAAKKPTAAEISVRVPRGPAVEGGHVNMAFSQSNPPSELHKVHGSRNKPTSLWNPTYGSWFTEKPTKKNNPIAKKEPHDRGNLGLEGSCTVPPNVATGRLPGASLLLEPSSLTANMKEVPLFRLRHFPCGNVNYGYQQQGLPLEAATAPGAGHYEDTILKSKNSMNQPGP

How the values were obtained:
[1] = target: ALK tyrosine kinase receptor (Homo sapiens, UniProt Q9UM73, C1156Y); assay: Binding affinity to human ALK (1088 to 1409 residues) C1156Y mutant expressed in mammalian system by KINOMEscan assay
[2] = target: T1, ALK tyrosine kinase receptor (Homo sapiens, UniProt Q9UM73); assay: Binding affinity to human ALK (1088 to 1409 residues) expressed in mammalian system by KINOMEscan assay
[3] = target: T2, Focal adhesion kinase 1 (Homo sapiens, UniProt Q05397); assay: Inhibition of FAK phosphorylation in human HCC827 cells after 2 to […] by immunoblot analysis; format: cell-based
[4] = target: T1, ALK tyrosine kinase receptor; assay: Inhibition of EML4-ALK tyrosine phosphorylation in human NCI-H2228 cells; format: cell-based
[5] = target: T1, ALK tyrosine kinase receptor; assay: Inhibition of human ALK expressed in baculovirus using recombinant GST PLC-gamma as substrate assessed as phosphorylation of the substrate after 15 mins by TRF assay
[6] = target: T1, ALK tyrosine kinase receptor; assay: Inhibition of EML4-ALK tyrosine phosphorylation in human NCI-H3122 cells; format: cell-based
[7] = target: ALK tyrosine kinase receptor (Homo sapiens, UniProt Q9UM73, L1196M); assay: Binding affinity to human ALK (1088 to 1409 residues) L1196M mutant expressed in mammalian system by KINOMEscan assay
[8] = target: T1, ALK tyrosine kinase receptor; assay: Inhibition of NPM-ALK phosphorylation in human SUP-M2 cells after 2 to 3 hrs by ELISA; format: cell-based
[9] = target: ALK tyrosine kinase receptor (Homo sapiens, UniProt Q9UM73, F1174L); assay: Binding affinity to human ALK (1088 to 1409 residues) F1174L mutant expressed in mammalian system by KINOMEscan assay
[10] = target: T2, Focal adhesion kinase 1; assay: Inhibition of human FAK expressed in baculovirus after 30 mins using biotinyl-amino-hexanoyl-EQEDEPEGDYFEWLE-amide as substrate by TRF assay

Row | IC50 [5] | IC50 [8] | IC50 [10] | SMILES | Kd [1] | Kd [2] | IC50 [3] | IC50 [4] | IC50 [6] | Kd [7] | Kd [9]
1 | 5.7 nM | 50 nM | 1 nM | CNC(=O)c1ccccc1Nc1nc(Nc2ccc3c(c2OC)CCC[C@@H](N2CCN(CCO)CC2)C3)ncc1Cl | – | – | – | – | – | – | –
2 | 3.4 nM | 40 nM | 3.1 nM | CNC(=O)c1ccccc1Nc1nc(Nc2ccc3c(c2OC)CCCC(N2CCN(CCO)CC2)C3)ncc1Cl (racemic) | – | – | – | – | – | – | –

Row | SMILES | IC50 [5] | IC50 [8] | IC50 [10] | Kd [1] | Kd [2] | IC50 [3] | IC50 [4] | IC50 [6] | Kd [7] | Kd [9]
3 | CNC(=O)c1ccccc1Nc1nc(Nc2ccc3c(c2OC)CCC[C@H](N2CCN(CCO)CC2)C3)ncc1Cl [CEP-37440] | 3.1 nM | 22 nM | 2 nM | 1.6 nM | 2.3 to 3.6 nM | 80 to 357 nM | 175 nM | 85 nM | 3.3 nM | 1.1 nM
